Source: PubChem BioAssay
Shown are actives, neighbours in structure and some others; about 0.72% of the full set was active somewhere.
miR-21 reporter: raises the signal of a miR-21 reporter; Potency, µM (doses to about 38.3 µM), inactives show top-dose reporter change, positive = more light; HeLa miR-21 FLuc reporter, luciferase, 48 h; AID 2288; 340,000 tested, under 10 active; active = well fitted rising curve with a large enough effect; inconclusive = small, poorly fitted or top-dose-only effect; inactive = no such curve, though single readings can be large or run the other way;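 further: % of control where 0% means no effect; miR-21 action dims this reporter so a rising signal means less miR-21 action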
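HeLa miR-21-FLuc reporter line, endogenous miR-21; 2000 cells/well in DMEM/10% FBS; compound titration up to ~40uM final, 48 h, 37 degree Celsius; luciferase detection reagent, 15 min lysis, CCD luminescence.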
RXFP1 agonist: agonists of human relaxin receptor RXFP1 | Potency, µM (highest dose often 57.5 µM), without a hit: at the top dose activation, actives largely listed as activators | HEK293T-RXFP1 cAMP TR-FRET, 30 min; response scale: percent of porcine relaxin response, buffer zero | Q9HBX9 | 370,000 compounds, 0.3% hits; note: potency is the fitted concentration of half-maximal effect; % is set by controls: 0 for no effect and ±100 for the full control effect; nearly all actives have a fitted effect of over 60% in size
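HEK293 cells stably expressing RXFP1, treated 30 min at 37C with compounds plus PDE4 inhibitor Ro 20174; cAMP measured by HTRF TR-FRET. Normalized to buffer and 29 nM porcine relaxin; EC50 by Hill fit.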
Mito fusion yeast: inhibitors of mitochondrial division or activators of mitochondrial fusion; S. cerevisiae fusion-defective mutant growth rescue, CellTiterGlo 48 h; Potency, µM (series often up to 46.1 µM), for the others: at the top dose growth rescue (activation), hits mostly activators; 320,000 compounds, 0.23% hits; note: potency is the fitted concentration of half-maximal effect; % of control where 0% means no effect; nearly all actives have a fitted effect of over 45% in size
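Read-out: ATP-based luminescence (CellTiterGlo, 10 min ambient) reporting growth of fusion-defective ts yeast after 48 hours at 37C on glycerol/ethanol YPEG medium in the presence of compound.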
ASM inhibitor: human S-ASM enzyme inhibition | P17405 | placental ASM, HMU-PC fluorogenic substrate, 60 min | Potency, µM (series often up to 57.5 µM), for the others: at the highest dose activity change, negative = inhibition, most hits filed as inhibitors | 340,000 compounds, 0.006% hits; note: potency is the fitted concentration of half-maximal effect
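qHTS format. ASM enzyme prepared from human placenta hydrolyses the fluorogenic substrate HMU-PC0 (9 uM final) over 60 min at 37 °C after a 10 min compound preincubation.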
RXFP1 antagonist: blocks the human relaxin receptor RXFP1; 350,000 compounds, 0.59% hits; activity change, negative = inhibition, % at 57.5 µM; AID 1259400; Q9HBX9; HEK293-RXFP1, relaxin-stimulated cAMP HTRF, 30 min; active compounds read low;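 active = activity change of -60% or lower, but not beyond a set lower limit; inconclusive = change between -60% and -40%, or beyond the set limit; inactive = change above -40%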; note: % is set by controls: 0 for no effect and ±100 for the full control effect
ERG Ets-DNA blk: blocks human ERG Ets domain binding to DNA | fluorescence polarization, His-ERG Ets domain / labelled DNA | Potency, µM (titrated, usually from 76.9 µM), inactives show at the highest dose FP activity, negative = inhibition, most hits filed as inhibitors | 370,000 compounds, 0.028% hits | AID 624246; active = well fitted inhibition curve with a large enough effect in the polarisation, with a control signal flat; inconclusive = small, poorly fitted or top-dose-only effect, or effect the other way, or a change in a side signal; inactive = no such curve, though single readings can be large or run the other way; the % refers to the polarisation;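 note: polarization taken with two DNA probes labelled with fluorescein and Texas red; potency is the fitted concentration of half-maximal effect; % of control where 0% means no effect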
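His-tagged ERG Ets domain (1 uM in the protein solution; 300mM KCl, 50mM Tris-HCl, 1mM EDTA, 1mM DTT, pH 7.5) received compound, then a probe mix of 5 nM fluorescein-DNA and 100nM Texas-615-DNA. Fluorescence polarization was read for both dyes.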
Active calls of the source: *; ? = inconclusive; / = no result; ! = not confirmed by another sample. Unless noted, calls come from the whole dose curve; as a rule, active = well fitted curve in the direction sought with a large enough effect; inconclusive = small, poorly fitted or top-dose-only effect, or another doubt; inactive = no such curve, though single readings can be large; an effect the other way counts as inactive or inconclusive.

1	Cc1ccc(C(=O)NCC(=O)OCCOc2cccc(Cl)c2)cc1
2	Cc1ccc(C(=O)NCC(=O)OCCOc2ccccc2Cl)cc1
3	CC1=C(C(=O)O)N2C(=O)[C@@H](NC(=O)[C@H](N)C3=CCC=CC3)[C@H]2SC1
4	CCCCC(=O)O[C@]1(C(=O)CO)[C@@H](C)C[C@H]2[C@@H]3CCC4=CC(=O)C=C[C@]4(C)[C@@]3(F)[C@@H](O)C[C@@]21C
5	C=CCN1CCc2c(cc(O)c(O)c2Br)[C@@H](c2ccccc2)C1
6	CN1CCc2cc(O)c(O)cc2C(c2ccccc2)C1 (stereo unspecified)

entry no. | 1 | 2 | 3 | 4 | 5 | 6
RXFP1 antagonist | -5.1 | -83.7* | 11.9 | -9.1 | / | /
miR-21 reporter | / | / | / | / | / | /
RXFP1 agonist | 0.0% | 0.4% | / | / | / | -0.9%
Mito fusion yeast | -1.1% | -20.7% | / | / | 16.4µM* | ?
ERG Ets-DNA blk | -4.1% | -5.4% | / | / | 1.0% | -4.9%
ASM inhibitor | -1.9% | -1.4% | / | / | 3.5% | -13.7%

7	CCN(CC(=O)Nc1ccccc1C(F)(F)F)C(=O)CN1C(=O)NC2(CCCC2)C1=O
8	O=C(NC1CCCCC1)c1ccc(CNc2nc(=S)[nH]c3ccccc23)cc1
9	CC(NC(=O)CCN1C(=O)c2ccccc2C1=O)c1ccccc1 (stereo unspecified)
10	CC1Cc2cc(S(=O)(=O)N3CCCC(C(=O)N4CCCCC4)C3)ccc2N1C(=O)C1CC1 (stereo unspecified)
11	Cc1ccc(C)c(OCCC(=O)OCC(=O)NCCNC(=O)COC(=O)CCOc2cc(C)ccc2C)c1
12	Cc1ccc(C)c(OCCC(=O)OCC(=O)NCc2ccccc2)c1

entry no. | 7 | 8 | 9 | 10 | 11 | 12
RXFP1 antagonist | -60.5* | -80.8* | -6.3 | 15.1 | -62.0* | -0.3
miR-21 reporter | / | 0.1% | -7.1% | -7.1% | / | /
RXFP1 agonist | 1.2% | 0.1% | 3.2% | 1.5% | 1.7% | -0.7%
Mito fusion yeast | -4.3% | -2.6% | 2.3% | 0.316µM* | -7.5% | 4.3%
ERG Ets-DNA blk | -3.7% | -7.1% | 11.3% | 0.3% | 13.9% | 7.0%
ASM inhibitor | 11.7% | 2.1% | 0.9% | 1.2% | -7.1% | -3.1%

A stretch of the results above, as a working copy:
9	CC(NC(=O)CCN1C(=O)c2ccccc2C1=O)c1ccccc1 (stereo unspecified)
10	CC1Cc2cc(S(=O)(=O)N3CCCC(C(=O)N4CCCCC4)C3)ccc2N1C(=O)C1CC1 (stereo unspecified)
11	Cc1ccc(C)c(OCCC(=O)OCC(=O)NCCNC(=O)COC(=O)CCOc2cc(C)ccc2C)c1
12	Cc1ccc(C)c(OCCC(=O)OCC(=O)NCc2ccccc2)c1

entry no. | 9 | 10 | 11 | 12
RXFP1 antagonist | -6.3 | 15.1 | -62.0* | -0.3
miR-21 reporter | -7.1% | -7.1% | / | /
RXFP1 agonist | 3.2% | 1.5% | 1.7% | -0.7%
Mito fusion yeast | 2.3% | 0.316µM* | -7.5% | 4.3%
ERG Ets-DNA blk | 11.3% | 0.3% | 13.9% | 7.0%
ASM inhibitor | 0.9% | 1.2% | -7.1% | -3.1%

Going on with the list.
13	COc1cc(CNC(=O)CCCCCCC(C)C)ccc1O
14	CC(=O)Nc1cccc(C(=O)/C=C/c2cccs2)c1
15	CC(=O)Nc1cccc(C(=O)/C=C/c2ccc(/C=C/C(=O)c3cccc(NC(C)=O)c3)cc2)c1
16	CC(=O)Nc1cccc(C(=O)/C=C/c2ccc(Br)cc2)c1
17	O=[N+]([O-])c1cccc(NC2=NCCC2)c1
18	CC(C)Oc1ccc(C(=O)NC2(C(F)(F)F)NC(=O)N(CCCc3ccccc3)C2=O)cc1 (stereo unspecified)

entry no. | 13 | 14 | 15 | 16 | 17 | 18
RXFP1 antagonist | / | / | / | -19.4 | -64.5* | /
miR-21 reporter | / | 10.4% | 27.2% | ? | 4.0% | 1.7%
RXFP1 agonist | -0.1% | 0.1% | 1.6% | 3.1% | 0.7% | -0.1%
Mito fusion yeast | 18.4µM*! | 10µM* | -4.5% | 14.1µM* | -3.2% | 20µM*
ERG Ets-DNA blk | -8.8% | -1.6% | / | -6.6% | 5.5% | 5.0%
ASM inhibitor | -0.8% | -0.6% | / | / | 6.8% | -13.7%

19	COc1ccccc1C(=O)NC1(C(F)(F)F)NC(=O)N(CCc2ccccc2)C1=O (stereo unspecified)
20	COc1cc(C2c3c(oc4ccccc4c3=O)C(=O)N2c2nccs2)ccc1O (stereo unspecified)
21	COc1cc(C2c3c(oc4ccccc4c3=O)C(=O)N2c2ccc(C)cn2)ccc1O (stereo unspecified)
22	CN(C)C(=O)CNC(=O)Cc1ccccc1
23	CCOc1ccccc1NC(=O)COn1nnc2ccc(Cl)cc21
24	O=C(NCCc1nc2ccccc2n1Cc1ccccc1F)c1ccc(F)cc1

entry no. | 19 | 20 | 21 | 22 | 23 | 24
RXFP1 antagonist | / | -105.0* | -25.3 | 19.6 | -4.5 | 1.4
miR-21 reporter | -6.1% | -2.4% | -9.6% | / | -1.0% | 8.0%
RXFP1 agonist | 3.2% | 0.0% | 8.2% | / | 0.8% | -0.5%
Mito fusion yeast | / | 1.0% | 16.0% | / | 11.2µM* | /
ERG Ets-DNA blk | -2.7% | -1.3% | 1.4% | / | 2.7% | -12.9%
ASM inhibitor | / | -1.1% | -6.5% | / | -1.7% | /

25	O=C1NC(=O)/C(=C/c2ccc3nccnc3c2)S1
26	O=Cc1ccc(N2CCCC2)c([N+](=O)[O-])c1
27	O=[N+]([O-])/C=C\c1ccc(N2CCCC2)c(F)c1
28	COc1ccccc1Cn1c(CNS(=O)(=O)c2ccccc2Cl)nc2cccnc21
29	O=C(Cn1cc(C(F)(F)F)ccc1=O)Nc1ccc(N2CCOCC2)cc1
30	C=CCn1c(=O)c(CCC(=O)Nc2ccc(N3CCOCC3)cc2)nc2cc(C(F)(F)F)ccc21

entry no. | 25 | 26 | 27 | 28 | 29 | 30
RXFP1 antagonist | / | -18.9 | -67.8* | -2.3 | -13.3 | -67.7*
miR-21 reporter | / | 2.3% | ? | 2.4% | -0.1% | -0.3%
RXFP1 agonist | / | 3.1% | 0.2% | -0.9% | -0.2% | -1.5%
Mito fusion yeast | 9.2µM* | 7.8% | 18.1% | / | 1.7% | -2.4%
ERG Ets-DNA blk | / | -5.7% | 1.0% | 9.7% | 3.2% | 7.2%
ASM inhibitor | / | -1.6% | -3.8% | / | -0.2% | -5.8%

31	c1ccc2c(c1)CCc1ccccc1N2
32	COc1ccc(C2C=C(c3ccccc3)Nc3nc(NC(=O)c4ccc(C)cc4)nn32)cc1 (stereo unspecified)
33	COc1ccc(C(=O)Nc2nc3n(n2)C(c2ccc(Cl)cc2)C=C(c2ccccc2)N3)cc1OC (stereo unspecified)
34	O=C(O)Cn1c(=O)n(Cc2ccc(Br)cc2F)c(=O)c2ccc(Cl)cc21
35	CCOc1ccc(Cn2c(=O)sc3ccccc32)cc1
36	CCCCOc1ccccc1Cn1c(=O)sc2ccccc21

entry no. | 31 | 32 | 33 | 34 | 35 | 36
RXFP1 antagonist | -17.3 | -3.9 | -9.8 | -23.7 | -2.2 | -68.0*
miR-21 reporter | / | -25.2% | 8.5% | / | -21.3% | -8.7%
RXFP1 agonist | / | -0.5% | 20µM* | / | 0.0% | 0.4%
Mito fusion yeast | / | / | / | / | 0.6% | /
ERG Ets-DNA blk | / | 1.7% | -4.1% | / | 12.7% | -4.0%
ASM inhibitor | / | / | / | / | -3.7% | /

37	CC(=O)Nc1ccc(C(=O)OCc2ccc(F)cc2Cl)cc1
38	CC(=O)Nc1ccc(C(=O)OCc2ccc(F)cc2)cc1
39	O=C(Nc1nc2cc3c(cc2s1)OCCO3)C1CCCCC1
40	COc1ccc(C2c3ccc4ccccc4c3Oc3ncn(CCN(C)C)c(=N)c32)cc1 (stereo unspecified)

entry no. | 37 | 38 | 39 | 40
RXFP1 antagonist | 7.7 | -2.0 | -68.1* | -108.2*
miR-21 reporter | -13.0% | -26.2% | / | ?
RXFP1 agonist | -1.9% | 0.7% | 0.0% | 2.1%
Mito fusion yeast | 12.6µM* | ? | ? | -17.4%
ERG Ets-DNA blk | -7.2% | -8.1% | 9.6% | 45.5%
ASM inhibitor | -10.2% | -4.0% | 0.9% | -4.9%
